Source: US12453728B1, “Compositions comprising inhibitors of microsomal triglyceride transfer protein and Apo-B secretion” (Redux Therapeutics, LLC, priority 2024, dated 2025)

Test: Safety and tolerability in the olanzapine study
Conditions: whole study

Question: With `COc1cccc(C(=O)Nc2ccc3c(c2)CCN(C(=O)Oc2ccccc2)C3)c1-c1ccc(C(F)(F)F)cc1` [Compound 3] as the molecule, how does the “SAEs, fatal events, discontinuations due to adverse events” value read?
Answer: Its value is “No SAEs, fatal events, or discontinuations due to adverse events”.
